Experimental findings from US20230028476A1 (EVOTEC INTERNATIONAL, published 2023) are described below.

Protein sequences, listed by entry. Tags and fused reporters are not part of them. Residues count along the entry.
UniProt P25942, 21-277: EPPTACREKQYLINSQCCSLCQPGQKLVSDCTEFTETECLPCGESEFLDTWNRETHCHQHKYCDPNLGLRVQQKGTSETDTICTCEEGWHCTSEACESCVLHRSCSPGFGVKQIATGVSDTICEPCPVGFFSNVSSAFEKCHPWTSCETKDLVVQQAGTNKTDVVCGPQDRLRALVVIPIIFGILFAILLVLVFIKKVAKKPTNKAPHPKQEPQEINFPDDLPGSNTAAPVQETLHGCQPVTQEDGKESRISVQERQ

The target of assay [1] is human CD40 (human, UniProt P25942). The experiment in a line: cell-based or functional assay.
Assay [2] concerns the target human IFN receptor on HEK-Blue IFN-α/β cells (human). Description: cell-based or functional assay.

B1: IFA46 (antibody, human IgG2, kappa)
light: DIQMTQSPSSVSASVGDRVTITCRASQGIYSWLAWYQQKPGKAPNLLIYTASTLQSGVPSRFSGSGSGTDFTLTISSLQPEDFATYYCQQANIFPLTFGGGTKVEIKRTVAAPSVFIFPPSDEQLKSGTASVVCLLNNFYPREAKVQWKVDNALQSGNSQESVTEQDSKDSTYSLSSTLTLSKADYEKHKVYACEVTHQGLSSPVTKSFNRGECGGGGSGGGGSGGGGSGGGGS[gap - about 150 residues]
heavy: QVQLVQSGAEVKKPGASVKVSCKASGYTFTGYYMHWVRQAPGQGLEWMGWINPDSGGTNYAQKFQGRVTMTRDTSISTAYMELNRLRSDDTAVYYCARDQPLGYCTNGVCSYFDYWGQGTLVTVSSASTKGPSVFPLAPCSRSTSESTAALGCLVKDYFPEPVTVSWNSGALTSGVHTFPAVLQSSGLYSLSSVVTVPSSNFGTQTYTCNVDHKPSNTKVDKTVERKCCVECPPCPAPPVAGPSVFLFPPKPKDTLMISRTPEVTCVVVDVSHEDPEVQFNWYVDGVEVHNAKTKPREEQFNSTFRVVSVLTVVHQDWLNGKEYKCKVSNKGLPAPIEKTISKTKGQPREPQVYTLPPSREEMTKNQVSLTCLVKGFYPSDIAVEWESNGQPENNYKTTPPMLDSDGSFFLYSKLTVDKSRWQQGNVFSCSVMHEALHNHYTQKSLSLSPGK
For the molecule B1, the “CD40 EC50 (HEK-Blue CD40L reporter cells)” value in assay [1] came to 0.0863 µg/mL. The “IFNω EC50 (HEK-Blue IFN-α/β reporter cells)” value in assay [2] is 0.000493 µg/mL.
